Reference: paper PMC8360000 (Clinical Pharmacology and Therapeutics, 2021)

Test system: P‐gp
Assay: IVIVE of intrinsic CL and Kp,uu,brain using REF and BMEC protein content
Set-up: species or system human

IVIV Extrapolated CLi (mean ± standard deviation, scaled with BMEC protein content): 279 ± 58 mL/min | P/O (predicted/observed value) (method 2): 1.08
SMILES: CCN(CC)CCNC(=O)c1cc(Cl)c(N)cc1OC [Metoclopramide, metoclopramide]
